One data set concerns RKO. The data set is described as follows: Cell viability assay of ISC-4 combined with approved antitumor agents, RKO. It is filed as cell-based, human. More on the design: key: uncooperative (−); cooperative (+); synergistic (*); ambiguous (?). Particulars: ISC-4 (1, 2, or 4 μM) plus therapy at putative EC12.5, EC25, EC50; compared to monoagent activity.
The subject of the next data set is SW480. Nature of the data set: Cell viability assay of ISC-4 combined with approved antitumor agents, SW480. It is filed as cell-based, human. The conditions noted are these: ISC-4 (1, 2, or 4 μM) plus therapy at putative EC12.5, EC25, EC50; compared to monoagent activity. Further details: key: uncooperative (−); cooperative (+); synergistic (*); ambiguous (?).
In data set [1] the test system is SW480 and RKO colon cancer cell lines. The conditions noted are these: estimated from the literature; dose used with ISC-4 in FIG. 2; cited from earlier work.
Data set [2] in a line: Serum chemistry profiles of mice. Particulars: mouse, in vivo.

Here are results for 2 substances from patent US20150328310A1, “METHODS AND COMPOSITIONS RELATING TO TREATMENT OF CANCER” (THE PENN STATE RESEARCH FOUNDATION, priority 2012, published 2015).

By EC25 is commonly meant the concentration needed for an effect of 25%. For orientation: EC50 means the concentration giving half of the maximal effect.

Turning to Cetuximab, in the data set on RKO, the “Combinatorial effect of ISC-4 with the listed therapy, RKO” value is “*”. The “Combinatorial effect of ISC-4 with the listed therapy, SW480” value in the data set with SW480 is given as “−”. For the same substance, in data set [1], the EC12.5 is 0.25 µg/mL and the EC25 was 0.5 µg/mL. Further, the Cl in data set [2] is on record as 104 ± 5 mmol/L.
For Trastuzumab, the “Combinatorial effect of ISC-4 with the listed therapy, RKO” value in the data set with RKO is listed as “−”. Besides, the “Combinatorial effect of ISC-4 with the listed therapy, SW480” value with SW480 is recorded as “−”. Further, in data set [1], the EC12.5 was 0.0625 µg/mL, the EC25 is 0.125 µg/mL and the concentration giving a half-maximal response (EC50) was 0.25 µg/mL.
